Reference: PMC10820479, “An Improved In Vitro Blood-Brain Barrier Model for the Evaluation of Drug Permeability Using Transwell with Shear Stress” (Pharmaceutics, 2023)

Tested on: in vitro AS BBB model (hCMEC/D3 co-cultured with U87MG)

“fluorescein isothiocyanate (FITC)–dextran [FITC-dextran 40 kDa]” was tested, and the Papp was 0.23 ± 0.062 ×10^−6 cm/s.
